This is an account of results in ChEMBL document CHEMBL2157904, “Identification of a novel Smoothened antagonist that potently suppresses Hedgehog signaling” (Bioorg Med Chem, 2012).

Sequences of proteins named here, by UniProt entry; tags and fusion partners are left off.
Protein smoothened (Homo sapiens), Q99835, UniProt Q99835, whole entry D473H: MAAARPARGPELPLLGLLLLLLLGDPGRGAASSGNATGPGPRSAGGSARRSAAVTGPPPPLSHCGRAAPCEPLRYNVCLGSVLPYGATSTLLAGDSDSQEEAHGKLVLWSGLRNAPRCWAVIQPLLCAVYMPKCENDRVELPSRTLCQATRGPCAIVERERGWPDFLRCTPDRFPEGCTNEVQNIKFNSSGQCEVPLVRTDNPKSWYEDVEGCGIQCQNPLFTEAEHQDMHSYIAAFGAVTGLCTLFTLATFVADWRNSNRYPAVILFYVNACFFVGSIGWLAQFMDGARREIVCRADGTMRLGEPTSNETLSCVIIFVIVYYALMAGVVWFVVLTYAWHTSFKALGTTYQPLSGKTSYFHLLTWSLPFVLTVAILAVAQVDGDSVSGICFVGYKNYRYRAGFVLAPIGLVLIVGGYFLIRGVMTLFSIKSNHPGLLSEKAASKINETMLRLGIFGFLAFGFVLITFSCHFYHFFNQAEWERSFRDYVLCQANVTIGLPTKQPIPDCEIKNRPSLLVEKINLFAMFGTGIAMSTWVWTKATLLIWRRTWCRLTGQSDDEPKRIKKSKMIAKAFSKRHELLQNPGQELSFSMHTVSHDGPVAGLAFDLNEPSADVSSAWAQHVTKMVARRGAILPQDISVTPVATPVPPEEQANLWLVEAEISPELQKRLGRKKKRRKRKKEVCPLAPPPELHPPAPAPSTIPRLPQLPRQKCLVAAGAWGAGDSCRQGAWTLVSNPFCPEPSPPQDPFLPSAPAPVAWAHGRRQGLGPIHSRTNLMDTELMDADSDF

SMILES strings stand for the structures. The source made the active and inactive calls. The rule behind the calls is not given here.

The subject of experiment [1] is Protein smoothened (Homo sapiens), Q99835 [D473H]. Description: Displacement of [3H]cyclopamine from Smo D473H mutant expressed in U2OS cells after 2 hrs by scintillation counting relative to control. It is filed as cell-based.
The test system is the same in experiment [2]. Description: Displacement of [3H]cyclopamine from Smo D473H mutant expressed in U2OS cells up to 10 uM after 2 hrs by scintillation counting. It is filed as cell-based.

`O=C(NC1CCN(Cc2ccc(N3CCC(NC(=O)c4cccc(-c5cccnc5)c4)CC3)nc2)CC1)c1cccc(-c2cccnc2)c1`: the fold change (FC) in experiment [1] is 13.
In the case of `Cc1c(C(=O)Nc2ccc(N3C[C@@H](C)O[C@@H](C)C3)nc2)cccc1-c1ccc(OC(F)(F)F)cc1`, the result in experiment [2] was inactive.
